Yeast mating assay B: variants of the scFv Ab-14

Target peptide (SARS-CoV-2 spike, HR2 region): PDVDLGDISGINAS

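The parent was found by panning a naive human phage display library on the peptide. This is the validation round: designs drawn from the data on random variants, tested in the same kind of assay. Their group label is 14L_GP_Gen (GP: Gaussian process model; Gen: genetic algorithm; a sequence that several methods proposed may carry one label only). AlphaSeq pools MATa yeast showing the antibodies with MATalpha yeast showing the peptide. Binding brings cells together so that they mate, and sequencing counts the barcode pairs among the diploids. The ratio of observed to expected reads was calibrated, replicate by replicate, on BCL2-family standards whose Kd was known from biolayer interferometry. Each pool was mated in six replicate cultures.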

Ab-14 is the parent antibody, in scFv form: VH, then a 15-residue (Gly4Ser)3 linker, then VL. The heavy chain is unchanged in all variants.
VH: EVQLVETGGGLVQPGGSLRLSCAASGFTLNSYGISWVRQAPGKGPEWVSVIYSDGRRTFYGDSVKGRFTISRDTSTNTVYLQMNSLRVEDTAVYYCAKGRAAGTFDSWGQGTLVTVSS
VL: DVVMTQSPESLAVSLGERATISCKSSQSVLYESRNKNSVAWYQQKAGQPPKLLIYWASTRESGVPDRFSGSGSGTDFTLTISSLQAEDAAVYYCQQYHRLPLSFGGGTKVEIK

Variants are written as CDR1, CDR2 and CDR3 of the light chain (limits as in the source). Parent: KSSQSVLYESRNKNSVA, WASTRES, QQYHRLPLS. Scale: log10 of Kd in nM, estimated from mating counts; low values are strong binders. The mean shown is taken over the replicates in which the pair was detected. "ND" means that the variant was in the library but no mating with the target was seen in that replicate; the authors take this as a sign of poor binding, and no number exists. Values of this round are not directly comparable with the first-round values of the same sequences. The authors' rule: three or more of the six replicates give a measured affinity, fewer mean a poor binder. Of ten entries with the parent sequence, four were seen in most replicates (averages 0.34 to 2.37), three in one and three in none, so single entries are noisy. Empty control strains, which show no peptide, gave a signal in 4% of pairings with all light chain designs; the median was 2.64 and 95% of these signals were weaker than 1.59. No background was subtracted. For each scFv, signals with the empty controls are counted beside the result, with their mean in brackets.

CDR-L1	CDR-L2	CDR-L3	log10 Kd, replicates	mean, log10 nM	empty controls
KFSQSFLYESRNKNSVA	DASTRES	QQYHRLPLS	-0.42 / -0.59 / -0.58 / -0.54 / -0.47 / -0.37	-0.49	0/18
KVSQSNLYESRNKNSVA	NASQRES	QQYHRLPLS	-0.30 / -0.49 / -0.35 / -0.53 / -0.37 / -0.24	-0.38	1/18 (3.47)
KLSWSMLYESRNKNSVA	DASTRES	QQYHRLPLS	1.32 / 0.62 / 1.14 / 0.75 / 1.04 / 1.04	0.99	0/18
KVEQSDLYESRNKNSVA	EASTRES	QQYHRLPLS	0.23 / 0.02 / -0.13 / -0.04 / -0.03 / 0.14	0.03	0/18
KLEQSQLYESRNKNSVA	NASTRSS	QQYHRLPLS	-0.33 / -0.16 / -0.41 / -0.55 / -0.37 / -0.34	-0.36	1/18 (1.95)
KLSQQNLYESRNKNSVA	NASTRES	QQYHRLPLS	0.05 / 0.03 / -0.11 / -0.15 / -0.10 / 0.10	-0.03	1/18 (3.21)
KLSQSQLYESRMKNSVA	NASTRLS	QQYHRLPLS	0.30 / -0.06 / 0.48 / 0.13 / 0.23 / 0.01	0.18	0/18
KLSQSVLYESRNKNNVA	EASTRED	QQYHRLPLS	-0.45 / -0.55 / -0.49 / -0.45 / -0.40 / -0.28	-0.44	0/18
KLEQSQDYESRNKNSVA	NASTRES	QQYHRLPLS	-0.25 / -0.30 / -0.41 / -0.53 / -0.53 / -0.27	-0.38	0/18
KVQQSWLYESRNKNSVA	DASTRES	QQYHRLPLS	-0.19 / -0.38 / -0.39 / -0.61 / -0.29 / -0.23	-0.35	3/18 (2.98)
KLQQSMLYESRNKNSVA	NASYRES	QQYHRLPLS	0.42 / -0.19 / -0.23 / -0.02 / -0.49 / -0.14	-0.11	0/18
KSSQSELYESRNKNSVA	EASTRES	QQYHRLPLS	-0.18 / -0.33 / -0.26 / 0.05 / -0.38 / -0.22	-0.22	0/18
KLSQSVLYEDRNFNSVA	NASQRES	QQYHRLPLS	0.29 / 0.44 / 0.51 / 0.33 / 0.24 / 0.39	0.37	1/18 (2.83)
KFSQSQLYESRNKNSVA	NASTRLS	QQYHRLPLS	0.19 / 0.10 / 0.54 / 0.06 / 0.21 / 0.36	0.24	0/18
KLPQSVLYESRNKNAVA	AASTRES	QQYHRLPLS	0.06 / -0.26 / -0.35 / -0.31 / -0.44 / -0.26	-0.26	1/18 (2.61)
KLAQSELYESRNKNSVA	NASTRES	QQYHRLPLS	0.27 / -0.05 / -0.11 / -0.09 / -0.32 / -0.08	-0.06	1/18 (4.87)
KLSQSVLYEQRQKNSVA	NASTRES	QQYHRLPLS	0.42 / 0.43 / 0.12 / -0.17 / 0.02 / 0.09	0.15	1/18 (2.61)
KISQSELYESRNKNSVA	EASTRMS	QQYHRLPLS	-0.03 / -0.04 / -0.16 / -0.27 / -0.12 / -0.02	-0.11	2/18 (2.71)
KLSQSDLYESRNKNSVA	NASTRES	QQYHRLPLS	-0.37 / -0.37 / -0.48 / -0.54 / -0.61 / -0.40	-0.46	0/18
KVSQSVPYESRNKNSVA	DASTRES	QQYHRLPLS	0.25 / 0.05 / 0.24 / -0.08 / 0.31 / 0.54	0.22	1/18 (1.99)
KLEQSDLYESRNKNSVA	NASQRES	QQYHRLPLS	0.83 / 0.59 / 0.49 / 0.44 / 0.40 / 0.64	0.57	2/18 (3.13)
KFSQSVLYESRNKNSVA	NASYRES	QQYHRLPLS	0.45 / 0.59 / 0.48 / 0.42 / 0.41 / 0.66	0.50	0/18
KVDQSQLYESRNKNSVA	QASTRES	QQYHRLPLS	-0.20 / -0.18 / -0.31 / -0.20 / -0.27 / -0.12	-0.21	3/18 (3.29)
KLSQSVEYESRNKNNVA	GASTRES	QQYHRLPLS	-0.51 / -0.49 / -0.53 / -0.56 / -0.59 / -0.34	-0.50	1/18 (2.99)
KLSQSVLYESRNKNSVA	NASTREM	QQYHRLPLS	-0.27 / -0.20 / -0.28 / -0.51 / -0.35 / -0.26	-0.31	1/18 (2.05)
KLSQSEPYESRNKNSVA	EASTRES	QQYHRLPLS	0.88 / 0.95 / 0.54 / 1.00 / 0.67 / 1.30	0.89	0/18
KLPQSHLYESRNKNSVA	QASQRES	QQYHRLPLS	0.15 / 0.15 / -0.32 / -0.23 / -0.31 / -0.22	-0.13	0/18
KVSQSVPYESRNKNSVA	NASTRES	QQYHRLPLM	ND / ND / 1.59 / 1.93 / 1.78 / ND	1.77	0/18
HLSQSVLYESRNKNSVA	NGSTRES	QQYHRLPLS	0.16 / -0.04 / -0.27 / -0.15 / -0.22 / -0.02	-0.09	0/18
KLMQSHLYESRNKNSVA	NASTRLS	QQYHRLPLS	-0.04 / -0.01 / -0.03 / 0.00 / -0.16 / 0.09	-0.02	0/18
KLSQSVLYESRMKNSVA	NASTREM	QQYHRLPLS	-0.08 / -0.15 / -0.44 / -0.48 / -0.46 / -0.29	-0.32	0/18
KLQQSVEYESRNKNSVA	QASTRLS	QQYHRLPLS	0.09 / -0.30 / -0.27 / -0.45 / -0.04 / -0.03	-0.17	1/18 (2.37)
KLSQSMLYESRAKNSVA	NASQRES	QQYHRLPLS	0.01 / -0.40 / -0.36 / -0.51 / -0.28 / -0.19	-0.29	2/18 (1.74)
KSSQSVDYESRNKNSVA	EASTREQ	QQYHRLPLS	0.66 / 0.51 / 0.26 / 0.19 / 0.41 / 0.71	0.46	1/18 (2.33)
KSQQSWLYESRNKNSVA	NASQRLS	QQYHRLPLS	0.13 / -0.02 / -0.12 / -0.05 / 0.00 / 0.11	0.01	0/18
KVSESDLYESRNKNSVA	EASTRES	QQYHRLPLS	0.20 / -0.02 / 0.12 / -0.04 / 0.03 / 0.15	0.07	0/18
KLEQSYLYESRNKNSVA	NASQRES	QQYHRLPLS	-0.04 / 0.04 / -0.05 / -0.11 / 0.14 / 0.15	0.02	2/18 (3.35)
KLSQSVLYESRNKNSVA	DASQRES	QDYHRLPLS	0.29 / 0.26 / 0.14 / 0.13 / 0.14 / 0.15	0.19	1/18 (2.53)
KLSQSELYESRMKNSVA	NASKRES	QQYHRLPLS	0.83 / 0.66 / 1.44 / 0.85 / 0.86 / 0.79	0.91	0/18

Values reported by Li et al. 2023, doi:10.1038/s41467-023-39022-2 (FLAb copy).